Among the data in ChEMBL document CHEMBL4706691, “Bicyclic Diazepinones as Dual Ligands of the α2δ-1 Subunit of Voltage-Gated Calcium Channels and the Norepinephrine Transporter” (J Med Chem, 2021) are inhibition values, retold here.

By UniProt entry, the sequences of proteins in these tests, tags left out.
UniProt Q9NY47, whole entry: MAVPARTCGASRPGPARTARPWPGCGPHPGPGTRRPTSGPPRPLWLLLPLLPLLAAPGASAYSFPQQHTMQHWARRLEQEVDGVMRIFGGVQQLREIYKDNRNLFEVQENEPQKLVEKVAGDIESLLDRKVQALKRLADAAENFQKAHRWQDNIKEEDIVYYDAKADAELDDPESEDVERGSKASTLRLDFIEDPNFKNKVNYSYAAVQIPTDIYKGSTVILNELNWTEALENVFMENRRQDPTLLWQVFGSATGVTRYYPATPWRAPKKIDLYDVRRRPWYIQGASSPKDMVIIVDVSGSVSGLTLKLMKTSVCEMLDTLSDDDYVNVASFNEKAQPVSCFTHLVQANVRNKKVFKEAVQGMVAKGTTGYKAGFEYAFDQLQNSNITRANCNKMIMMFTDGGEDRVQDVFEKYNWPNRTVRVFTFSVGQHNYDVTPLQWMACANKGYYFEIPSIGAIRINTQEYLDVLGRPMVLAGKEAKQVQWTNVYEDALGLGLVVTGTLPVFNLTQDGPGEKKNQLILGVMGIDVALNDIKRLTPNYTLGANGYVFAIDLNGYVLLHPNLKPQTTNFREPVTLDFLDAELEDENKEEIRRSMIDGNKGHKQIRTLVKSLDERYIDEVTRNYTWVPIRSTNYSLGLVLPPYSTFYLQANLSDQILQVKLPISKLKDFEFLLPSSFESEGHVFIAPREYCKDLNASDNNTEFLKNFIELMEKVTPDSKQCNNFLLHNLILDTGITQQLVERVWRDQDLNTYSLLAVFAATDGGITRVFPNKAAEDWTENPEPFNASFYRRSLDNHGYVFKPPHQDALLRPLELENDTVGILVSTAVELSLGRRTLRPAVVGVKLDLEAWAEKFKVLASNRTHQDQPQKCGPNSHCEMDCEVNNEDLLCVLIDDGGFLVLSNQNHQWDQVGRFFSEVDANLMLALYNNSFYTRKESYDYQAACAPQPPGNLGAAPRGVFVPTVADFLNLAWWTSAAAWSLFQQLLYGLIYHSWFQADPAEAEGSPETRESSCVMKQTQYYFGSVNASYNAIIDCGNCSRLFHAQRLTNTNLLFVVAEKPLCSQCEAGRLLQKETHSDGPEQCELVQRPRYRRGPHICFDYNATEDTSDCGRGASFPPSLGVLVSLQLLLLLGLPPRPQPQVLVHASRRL

The target of this assay is Voltage-dependent calcium channel subunit alpha-2/delta-2 (Homo sapiens, UniProt Q9NY47). The experiment in a line: Displacement of [3H]-gabapentin from human Cav alpha2delta2 expressed in HEK293 cell membranes at 10 uM incubated for 60 mins by scintillation counting method. Conditions: Cell membrane.

Regarding `CCNc1ncc2c(n1)N(C)CCN(c1cccc(-c3nnc(C)o3)c1)C2`, the inhibition turned out to be 70%.
